From patent US12637461B2, “Compounds for the activation of AMPK” (PFIZER INC., priority 2022, dated 2026)

Chains of the proteins cited; added tags and fusions are not shown.
UniProt O43741, whole entry: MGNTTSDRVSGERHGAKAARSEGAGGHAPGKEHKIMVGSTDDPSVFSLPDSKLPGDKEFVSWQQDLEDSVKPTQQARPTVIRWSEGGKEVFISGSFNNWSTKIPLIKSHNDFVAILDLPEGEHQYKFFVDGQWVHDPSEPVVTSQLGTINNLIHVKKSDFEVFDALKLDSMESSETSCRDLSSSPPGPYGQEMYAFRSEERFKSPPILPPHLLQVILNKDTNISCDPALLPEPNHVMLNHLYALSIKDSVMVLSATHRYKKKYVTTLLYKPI
UniProt P54646, whole entry: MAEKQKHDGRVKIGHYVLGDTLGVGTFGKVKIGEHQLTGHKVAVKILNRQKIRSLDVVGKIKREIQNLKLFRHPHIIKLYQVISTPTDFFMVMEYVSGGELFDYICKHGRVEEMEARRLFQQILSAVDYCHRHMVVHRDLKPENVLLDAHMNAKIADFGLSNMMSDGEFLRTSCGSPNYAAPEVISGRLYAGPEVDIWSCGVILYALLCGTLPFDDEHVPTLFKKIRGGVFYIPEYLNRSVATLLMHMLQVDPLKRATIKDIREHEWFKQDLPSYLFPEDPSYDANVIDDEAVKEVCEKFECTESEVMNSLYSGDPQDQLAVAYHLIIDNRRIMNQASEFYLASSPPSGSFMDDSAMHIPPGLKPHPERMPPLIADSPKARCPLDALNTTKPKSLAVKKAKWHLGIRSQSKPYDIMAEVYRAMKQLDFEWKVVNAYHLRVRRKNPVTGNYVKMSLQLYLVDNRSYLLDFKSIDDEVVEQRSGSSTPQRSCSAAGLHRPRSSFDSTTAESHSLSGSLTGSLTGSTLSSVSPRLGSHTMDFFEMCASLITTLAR
UniProt Q9UGI9, whole entry: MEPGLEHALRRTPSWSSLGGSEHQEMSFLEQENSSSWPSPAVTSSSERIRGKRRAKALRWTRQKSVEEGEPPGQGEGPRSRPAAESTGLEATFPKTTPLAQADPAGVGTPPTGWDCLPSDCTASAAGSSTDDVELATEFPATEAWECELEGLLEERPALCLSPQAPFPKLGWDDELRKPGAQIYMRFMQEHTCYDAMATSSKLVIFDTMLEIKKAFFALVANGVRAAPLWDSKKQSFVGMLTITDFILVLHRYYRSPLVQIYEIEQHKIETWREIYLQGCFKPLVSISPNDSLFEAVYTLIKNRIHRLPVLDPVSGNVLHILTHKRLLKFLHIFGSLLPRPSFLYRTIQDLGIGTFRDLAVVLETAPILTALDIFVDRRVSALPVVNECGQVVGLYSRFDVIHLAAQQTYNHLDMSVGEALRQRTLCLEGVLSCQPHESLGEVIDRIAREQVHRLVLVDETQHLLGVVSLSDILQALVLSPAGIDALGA

Biological target: human AMPK α2β2γ3 (Homo sapiens, UniProt O43741+P54646+Q9UGI9)
Experiment: Primary cellular assay: γ3 associated phospho-Thr172 AMPK detection (custom pAMPK Surefire AlphaLISA) in α2β2γ3 bulk transiently transfected HEK293 cells
Format: cell-based
Conditions: activation of human AMPK α2β2γ3 (γ3 pThr172 AMPK signal) in transiently transfected HEK293 cells, 20 minutes compound incubation; for Assay GMean Asy. Max (%): geometric mean of the asymptotic max; for EC50: read-out: Assay GMean EC50, geometric mean EC50

Row | SMILES | Assay GMean Asy. Max (%) | EC50 [nM]
1 | CC1CC1(O)C(=O)N1CC(Nc2ncc3c(n2)C(C)(c2cccc(Cl)c2F)CN(c2ncccc2F)C3=O)C1 (single isomer, unassigned) [83] | 152 | 82.8
2 | CC1CC1(O)C(=O)N1CC(Nc2ncc3c(n2)C(C)(c2cccc(Cl)c2F)CN(c2ncccc2F)C3=O)C1 (single isomer, unassigned) [84] | 184 | 72.4
